Measurements from PubChem BioAssay AID2260 (Sanford-Burnham Center for Chemical Genomics, 2010).
Calls of active or inactive are those of the source. How the calls were made is not given here.

Tested on: MCF-7/NOD2 cells, MDP-induced IL-8 secretion
Experiment: NOD2 pathway IL-8 secretion inhibitors – MCF-7/NOD2 cells, MDP stimulus, SAR follow-up (AID 2260)

- IC50: inactive: > 5 µM
SMILES: Cc1ccc(S(=O)(=O)n2cnc3ccccc32)cc1
